Binding of CDR-mutated scFvs to a peptide of the spike HR2 region

Values reported by Li et al. 2023, doi:10.1038/s41467-023-39022-2 (FLAb copy).

Target: peptide PDVDLGDISGINAS, taken from heptad repeat 2 (HR2) of SARS-CoV-2 spike.

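Designed CDR sequences, proposed from the first random library and measured here. Several design methods are mixed in this list. In AlphaSeq, yeast of one mating type display the scFv and yeast of the other type display the target. Mating (16 h, 30 °C) was followed by selection of diploids and sequencing of their barcodes. Scores were corrected for input abundance and mapped to Kd with protein pairs of known affinity run in the same pool. Each pool was mated in six replicate cultures.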

Ab-14 is the parent antibody, in scFv form: VH, then three GGGGS repeats, then VL. The heavy chain is unchanged in all variants.
VH: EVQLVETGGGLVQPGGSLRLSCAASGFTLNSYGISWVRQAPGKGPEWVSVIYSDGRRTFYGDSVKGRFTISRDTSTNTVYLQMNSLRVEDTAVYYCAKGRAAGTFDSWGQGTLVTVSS
VL: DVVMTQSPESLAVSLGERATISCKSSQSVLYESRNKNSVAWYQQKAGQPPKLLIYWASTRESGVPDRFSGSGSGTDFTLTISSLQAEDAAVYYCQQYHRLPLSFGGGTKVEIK

Substitutions are numbered in sequence along the VL above, starting at 1 (not Kabat).
This list holds designs with at most six substitutions.
Values are apparent Kd, the geometric mean of the replicates that gave a signal; lower means stronger binding.
Where no diploid with the target was found in any replicate, the entry reads "no signal": below detection, most likely a poor binder, though not proof of it.

For S25F V29D W56G, the assay gave 260 pM (6 of 6 replicates; controls 0 of 18).
For S25L S26P S28L V29W W56N, the assay gave 1.2 nM (6 of 6 replicates; controls 1 of 18).
For W56D A57D, the assay gave 2.9 nM (6 of 6 replicates; controls 2 of 18).
For S25L W56G Q96L, the assay gave 4.9 nM (6 of 6 replicates; controls 0 of 18).
For Q27N W56M H98T, the assay gave no signal (0 of 6 replicates; controls 0 of 18).
For S25L S26V S28G Y31K S38C, the assay gave no signal (0 of 6 replicates; controls 0 of 18).
For Q27I V29Y R34M W56G A57G, the assay gave 630 pM (6 of 6 replicates; controls 1 of 18).
For S26G Q27C S28G V29G W56G, the assay gave 370 pM (6 of 6 replicates; controls 2 of 18).
For S25L Y31G E32W W56N, the assay gave 480 pM (6 of 6 replicates; controls 1 of 18).
For K24H Q27P L30W Y31I W56N, the assay gave 2.3 nM (6 of 6 replicates; controls 2 of 18).
For R34Q E61R, the assay gave no signal (0 of 6 replicates; controls 0 of 18).
For S25I S28A V29Y S33D W56N S58N, the assay gave 480 pM (6 of 6 replicates; controls 1 of 18).
For S25L S26M S33E W56N T59Q, the assay gave 2.1 nM (6 of 6 replicates; controls 1 of 18).
For S25Q S26T, the assay gave 49 nM (3 of 6 replicates; controls 0 of 18).
For R34F N35P K36H H98P, the assay gave no signal (0 of 6 replicates; controls 0 of 18).
For Q27W V29D W56D, the assay gave 430 pM (6 of 6 replicates; controls 0 of 18).
For S25M S26E S28G W56Q T59V, the assay gave 2.2 nM (6 of 6 replicates; controls 2 of 18).
For S25V S26E S33Q W56A S62H, the assay gave 640 pM (6 of 6 replicates; controls 1 of 18).
For Q27W R34M W56H, the assay gave 96 nM (4 of 6 replicates; controls 0 of 18).
For S26D V39F W56Q, the assay gave 8.8 nM (6 of 6 replicates; controls 3 of 18).
For K24H Q27P S38N W56D, the assay gave 380 pM (6 of 6 replicates; controls 0 of 18).
For S25L V29Y W56G, the assay gave 1.1 nM (6 of 6 replicates; controls 3 of 18).
For S25Q V29D Y31M W56D, the assay gave 850 pM (6 of 6 replicates; controls 0 of 18).
For S25L K36M, the assay gave 4.1 nM (6 of 6 replicates; controls 0 of 18).
For Y31M R34E L102C, the assay gave 57 nM (6 of 6 replicates; controls 0 of 18).
For R34Q N35Y S58T Q95F, the assay gave 190 nM (1 of 6 replicates; controls 1 of 18).
For S26F, the assay gave 49 nM (1 of 6 replicates; controls 0 of 18).
For Q27I V29E R34M W56L A57G, the assay gave 40 nM (6 of 6 replicates; controls 1 of 18).
For S25L S26V Q27W V29D W56G T59Q, the assay gave 1.3 nM (6 of 6 replicates; controls 0 of 18).
For S25L S26C W56E S62D, the assay gave 1.0 nM (6 of 6 replicates; controls 0 of 18).
For S25L S26A W56D, the assay gave 860 pM (6 of 6 replicates; controls 0 of 18).
For S25L S26Q Y31P W56E T59L E61L, the assay gave 3.8 nM (6 of 6 replicates; controls 3 of 18).
For S26G Q27N S28G W56G, the assay gave 1.3 nM (6 of 6 replicates; controls 1 of 18).
For S25I L30M W56E, the assay gave 2.0 nM (6 of 6 replicates; controls 0 of 18).
For S25V Q27I V29Y Y31I W56E, the assay gave 2.1 nM (6 of 6 replicates; controls 0 of 18).
For V29D L30T Y31P V39I T59Q, the assay gave 4.5 nM (6 of 6 replicates; controls 1 of 18).
For E32D Y97C, the assay gave 140 nM (1 of 6 replicates; controls 0 of 18).
For Q27D W56N, the assay gave 2.7 nM (6 of 6 replicates; controls 0 of 18).
For S25H S26Y Q27P V29Y W56Q, the assay gave 2.8 nM (6 of 6 replicates; controls 1 of 18).
For S25L Q27G V29Y W56E, the assay gave 1.4 nM (6 of 6 replicates; controls 0 of 18).

The 5 strongest on average among those seen in every replicate, once more:

{"changes": "S25F V29D W56G", "Kd (apparent)": "260 pM", "detected": "6/6", "signal with controls": "0/18"}
{"changes": "S26G Q27C S28G V29G W56G", "Kd (apparent)": "370 pM", "detected": "6/6", "signal with controls": "2/18"}
{"changes": "K24H Q27P S38N W56D", "Kd (apparent)": "380 pM", "detected": "6/6", "signal with controls": "0/18"}
{"changes": "Q27W V29D W56D", "Kd (apparent)": "430 pM", "detected": "6/6", "signal with controls": "0/18"}
{"changes": "S25L Y31G E32W W56N", "Kd (apparent)": "480 pM", "detected": "6/6", "signal with controls": "1/18"}

The authors' rule: three or more of the six replicates give a measured affinity, fewer mean a poor binder.
Empty control strains, which show no peptide, gave a signal in 4% of pairings with all light chain designs; the median was 430 nM and 95% of these signals were weaker than 38 nM. No background was subtracted. The control count says in how many pairings with the empty strains this scFv gave a signal.
The parent sequence was in this pool as ten entries: three were never detected, three once, and four in most replicates, with averages from 2.2 nM to 240 nM.
The range of this assay differs from that of the first round, and the authors advise against merging the two.